Experimental data published in patent US9259452B2, “Deacetylase inhibitor therapy” (Celgene Corporation, priority 2006, dated 2016).

Assay: Serum cardiac troponin I and CPK levels prior to and on the day after each dose
Conditions: and in 18 cases on the day following those ECGs

SMILES: C/C=C1\NC(=O)[C@H]2CSSCC/C=C/[C@H](CC(=O)N[C@H](C(C)C)C(=O)N2)OC(=O)[C@H](C(C)C)NC1=O [romidepsin, (1S,4S,10S,16E,21R)-7-[(2Z)-ethylidene]-4,21-diisopropyl-2-oxa-12,13-dithia-5,8,20,23-tetraazabicyclo[8.7.6]tricos-16-ene-3,6,9,19,22-pentanone]
- Troponin levels coincident with all ECGs scored as grade 2: within normal limits
